Literature values as cited in patent US8846115B2, “Anti-inflammatory cyclooxygenase inhibitors” (Metaproteomics, LLC, priority 2001, dated 2014).

Chains of the proteins cited; added tags and fusions are not shown. Residues count along the entry.
UniProt P23219, 24-599: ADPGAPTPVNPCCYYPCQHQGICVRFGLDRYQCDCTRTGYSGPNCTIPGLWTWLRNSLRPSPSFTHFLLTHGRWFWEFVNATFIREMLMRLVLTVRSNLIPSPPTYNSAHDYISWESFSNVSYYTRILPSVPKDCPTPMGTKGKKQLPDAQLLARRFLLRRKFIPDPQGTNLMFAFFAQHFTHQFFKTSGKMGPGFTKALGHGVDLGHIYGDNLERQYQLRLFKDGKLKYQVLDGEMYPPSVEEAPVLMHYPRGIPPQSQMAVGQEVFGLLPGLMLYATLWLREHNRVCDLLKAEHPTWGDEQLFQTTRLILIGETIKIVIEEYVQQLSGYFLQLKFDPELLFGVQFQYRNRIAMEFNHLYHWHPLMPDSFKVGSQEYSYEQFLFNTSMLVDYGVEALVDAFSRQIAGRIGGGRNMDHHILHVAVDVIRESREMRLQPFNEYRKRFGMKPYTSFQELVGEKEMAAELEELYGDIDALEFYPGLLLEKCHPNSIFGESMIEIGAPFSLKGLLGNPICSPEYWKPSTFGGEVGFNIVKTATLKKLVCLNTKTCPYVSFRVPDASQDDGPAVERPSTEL

Target: COX-1 (Homo sapiens, UniProt P23219)
Settings: read-out: IC 50 for COX-1 inhibition by the WHMA method; cited from earlier work

For `CS(=O)(=O)c1ccc(C2=C(c3ccccc3)C(=O)OC2)cc1` [rofecoxib], the IC50 is listed as 63 µM.
